The source of these data is patent US6348445B1, “Biologically active peptides with reduced toxicity in animals and a method for preparing same” (priority 1992, dated 2002).

Assay type in all cases: cell-based
In one test the test system is S. aureus ATCC 29213.
Test [1] relates to MDA-435 human breast carcinoma cells. Particulars: 24 h. The protocol:
(§1) Human lung carcinoma cells, A-549 (ATCC), and human breast carcinoma cells, MDA-435 (from Sandoz), were grown in Ham's F12K medium (GIBCO-BRL) supplemented with […] fetal bovine serum. Human chronic myelogenous leukemia cells, K-562 (ATCC), were maintained in RPMI 1640 medium (GIBCO-BRL) supplemented with 10% fetal bovine serum. Human melanoma cell line, WM 1617 (from the Wistar Institute), was maintained in 2% Tumor media.
(§2) Cytotoxicity assays were performed on the cell lines described above using CytoLite (Packard Instrument Company) following the manufacture's instruction. Briefly, 2×10^4cells/well were seeded into black, 96-well ViewPlates (Packard Instrument Company) in 100 μl/well growth medium. Ser. dilutions of Magainin peptides were then added into the cells and the plates incubated for 24 hours in a humidified 5% CO2 atmosphere at 37° C. Following incubation, 25 μl/well of CytoLite activator solution was added followed by 125 μl/well of amplifier solution. Luminescence was measured on TopCount Microplate Scintillation and Luminescence counter (Packard Instrument Company) using a 1 second count time in SPC (single photon counting) mode at 25 ° C. All assays were performed in triplicate. The peptides tested in this assay were MSI-78(SEQ ID NO: 154 —NH2), MSI-1858(SEQ ID NO: 154 —NH2 Methane Sulfonate), MSI-344(SEQ ID NO: 154 —OH) and MSI-1857(SEQ ID NO: 154 —OH Methane Sulfonate). The results of these assays are shown in FIGS. 2-9 with the corresponding IC50 values in Table VIII. In all cases the activity of the methane sulfonated peptide was as good or better than the parent peptide as indicated by both the survival curves and the IC50 values.

Test [2] has as its system K-562 human chronic myelogenous leukemia cells. Particulars: 24 h. The protocol:
as §1, §2

Test [3] relates to A-549 human lung carcinoma cells. Particulars: 24 h. The protocol: as §1, §2
Test [4] has as its system WM 1617 human melanoma cells. The following applies: 24 h. The protocol: as §1, §2
Test [5] concerns E. coli ATCC strain 25922. The test is described as follows: Minimal Inhibitory Concentration, microtiter broth dilution. The text has this:
(§3) Table I, which follows, indicates the Minimal Inhibitory Concentration (MIC) in […] of various peptides against S.aureus strain ATCC 25923(S), P. aeruginosa strain ATCC 27853(P), E. coli ATCC strain 25922(E), and C. 4albicans (CA). […] The peptides are unsubstituted at the N-terminal; substituted with an acetyl group at the N-terminal, as indicated by Ac-; substituted with an octanoyl group at the N-terminal, as indicated by Oct-; substituted with spinogosine, as indicated by Sph-; substituted with a succinyl group, as indicated by Suc-; substituted with a hexanoyl group, as indicated by Hex-; substituted with a heptanoyl group, as indicated by Hep-; substituted with a valeryl group, as indicated by Val-; substituted with a myristryl group, as indicated by Myr-; or substituted with an ibuprofyl group, as indicated by Ibu-; […]
(§4) The stock peptide solution was diluted in serial dilutions (1:2) down the wells of a microtiter plate so that the final concentrations of peptides in the wells were 0.25, 0.50, 1, 2, 4, 8, 16, 32, 64, 128 and 256 μg/ml. […] The plates were incubated for 16-20 hours at 37° C., and the minimal inhibitory concentration (MIC) for each peptide was determined. […]
(§5) The in vitro anti-microbial activities of the methane sulfonate derivatives were determined according to the methods described in Examples 1 and 2. […]

For test [6], the system named is P. aeruginosa strain ATCC 27853.
Source text: as §3, §4, §5

Values after ≈ are worked out from the molar mass of the structure shown.

As a reminder, the IC50 is the concentration needed to halve the response being measured. With `CC[C@H](C)[C@H](NC(=O)CNCS(=O)(=O)O)C(=O)NCC(=O)N[C@@H](CCCCNCS(=O)(=O)O)C(=O)N[C@@H](Cc1ccccc1)C(=O)N[C@@H](CC(C)C)C(=O)N[C@@H](CCCCNCS(=O)(=O)O)C(=O)N[C@@H](CCCCNCS(=O)(=O)O)C(=O)N[C@@H](C)C(=O)N[C@@H](CCCCNCS(=O)(=O)O)C(=O)N[C@@H](CCCCNCS(=O)(=O)O)C(=O)N[C@@H](Cc1ccccc1)C(=O)NCC(=O)N[C@@H](CCCCNCS(=O)(=O)O)C(=O)N[C@@H](C)C(=O)N[C@@H](Cc1ccccc1)C(=O)N[C@H](C(=O)N[C@@H](CCCCNCS(=O)(=O)O)C(=O)N[C@H](C(=O)N[C@@H](CC(C)C)C(=O)N[C@@H](CCCCNCS(=O)(=O)O)C(=O)N[C@@H](CCCCNCS(=O)(=O)O)C(N)=O)[C@@H](C)CC)C(C)C` [MSI-1858], the “MIC S. aureus ATCC 29213” value in the test on S. aureus ATCC 29213 worked out at 32 µg/mL (≈ 9.36 µM). Besides, the IC50 in test [1] is 4 µM; in test [2], 7 µM; in test [3], 4 µM; in test [4], 4 µM. The “MIC E. coli ATCC 25922” value in test [5] came to 32 µg/mL (≈ 9.36 µM). Also, in test [6], the “MIC P. aeruginosa ATCC 27853” value is 32 to 64 µg/mL.
